Experimental findings from article PMC2847038 (Hippocampus, 2010) are described below.

By UniProt entry, the sequences of proteins in these tests, tags left out.
UniProt P20272, whole entry: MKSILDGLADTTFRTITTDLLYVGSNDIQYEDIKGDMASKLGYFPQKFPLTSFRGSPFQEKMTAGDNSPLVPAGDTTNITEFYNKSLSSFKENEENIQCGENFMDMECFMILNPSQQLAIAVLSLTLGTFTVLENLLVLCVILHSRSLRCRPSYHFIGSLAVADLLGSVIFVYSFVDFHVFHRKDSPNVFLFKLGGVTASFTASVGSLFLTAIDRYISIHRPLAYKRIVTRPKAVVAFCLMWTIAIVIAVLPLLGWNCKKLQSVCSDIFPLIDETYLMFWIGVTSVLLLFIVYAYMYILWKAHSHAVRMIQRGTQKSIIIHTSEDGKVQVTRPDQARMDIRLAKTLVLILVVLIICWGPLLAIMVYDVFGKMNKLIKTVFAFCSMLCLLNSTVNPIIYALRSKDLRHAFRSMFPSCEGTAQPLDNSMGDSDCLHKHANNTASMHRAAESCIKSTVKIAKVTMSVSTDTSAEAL

The target in assay [1] is T1, CB1 receptor (Rattus norvegicus, UniProt P20272). As to the kind of experiment: CB1 receptor-mediated [^35S]GTPγS binding assay. It counts as biochemical, Sprague-Dawley rats. Particulars: hippocampus membranes.
Assay [2] addresses T1, CB1 receptor. As to the kind of experiment: CB1 receptor binding assay. Details: species or system Sprague-Dawley rats.

Marks after values point to notes of the source that are not given here.

For `Cc1c(C(=O)c2cccc3ccccc23)c2cccc3c2n1[C@H](CN1CCOCC1)CO3` [WIN 55,212-2], the figures for the “Emax (maximal stimulation of ^35S-GTPγS binding)” value in assay [1] (CON animals) and in assay [1] (VEx animals) were 152.0 +/- 4.5 % baseline and 232.3 +/- 31.0 % baseline, respectively.
Consider `CCCCCCC(C)(C)c1ccc([C@@H]2C[C@H](O)CC[C@H]2CCCO)c(O)c1` [^3H-CP55940], for which the Bmax in assay [2] (hippocampus membranes, sedentary control (CON) animals) was 0.44 +/- 0.03 pmol/mg protein; in assay [2] (hippocampus membranes, voluntary exercise (VEx) animals, 8 days running wheel), 0.60 +/- 0.02* pmol/mg protein; in assay [2] (prefrontal cortex membranes, CON animals), 0.38 +/- 0.06 pmol/mg protein; in assay [2] (prefrontal cortex membranes, VEx animals), 0.34 +/- 0.03 pmol/mg protein.
